# Measured values: PubChem BioAssay AID743019 (Broad Institute, 2013)
# The entries are a selection whose mix differs from that of the whole data set. Calls of active or inactive are those of the source.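 How the source made its calls: active means rising signal whose fitted curve reaches the 0.54 level within the top valid dose, showing a melting point (actives reach about 13 µM in these data); inactive means the rest, including activity in the opposite direction.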
# Experiment: SYPRO orange dye artefact, no FGF22 present – biochemical, cherry-picked samples, RT-PCR instrument, artefact control for FGF22 binder project, dose response (AID 743019); further: value is where the raw curve crosses a fixed level and not half-maximal
# Details: compound-only SYPRO orange thermal shift counter-screen, no protein; at 38 µM (top of the series)
row,SMILES,outcome
1,CN(Cc1cccnc1)C(=O)COc1ccc(Cl)c(Cl)c1.O=[N+]([O-])c1cc([N+](=O)[O-])c(O)c([N+](=O)[O-])c1,inactive
2,CCN(CC)CCCNc1ccccc1[N+](=O)[O-].O=[N+]([O-])c1cc([N+](=O)[O-])c(O)c([N+](=O)[O-])c1,inactive
